Assays:
[1] = Plasma and tumor concentrations following single 10 μg (R848 equivalents) intratumoral administration to CT26 tumor bearing mice; type: in vivo, Balb/c mice; set-up: key to Compound 6 plasma concentration: +<10; 10≤++<100; 100≤+++<1,000; 1,000≤++++; BLQ is Below the Limit of Quantitation; R848 tumor concentration: ranges in brackets are in ng/g; conditions: for Compound 6 plasma concentration / Compound 6 tumor concentration: R848 Equivalent
Description: (§1) Studies were conducted to evaluate the single dose pharmacokinetics of R848 and Compound 6 in plasma and tumor tissue.
(§2) Plasma and tumor tissues were collected at pre-determined time points for analysis of R848 and Compound 6 using a qualified LC-MS/MS method.

[2] = Plasma and tumor concentrations following single 10 μg (R848 equivalents) intratumoral administration to EMT6 tumor bearing mice; type: in vivo, Balb/c mice; set-up: key to Compound 6 tumor concentration: +<1,000; 1,000≤++<10,000; 10,000≤+++<100,000; 100,000≤++++; BLQ is Below the Limit of Quantitations; key to Compound 6 plasma concentration: +<10; 10≤++<100; 100≤+++<1,000; 1,000≤++++; BLQ is Below the Limit of Quantitation; R848 tumor concentration: ranges in brackets are in ng/g; conditions: for Compound 6 plasma concentration / Compound 6 tumor concentration: R848 Equivalent
Description: as §1, §2

hTLR7 = target: T1, hTLR7 (Homo sapiens, UniProt Q9NYK1); assay: SEAP reporter gene assay in HEK293 cells stably transfected with human TLR receptor; type: cell-based; conditions: hTLR7 reporter cell line
T1 construct: expressed in transfected cells; host or cells: HEK293
T1 sequence (Q9NYK1 27-1049): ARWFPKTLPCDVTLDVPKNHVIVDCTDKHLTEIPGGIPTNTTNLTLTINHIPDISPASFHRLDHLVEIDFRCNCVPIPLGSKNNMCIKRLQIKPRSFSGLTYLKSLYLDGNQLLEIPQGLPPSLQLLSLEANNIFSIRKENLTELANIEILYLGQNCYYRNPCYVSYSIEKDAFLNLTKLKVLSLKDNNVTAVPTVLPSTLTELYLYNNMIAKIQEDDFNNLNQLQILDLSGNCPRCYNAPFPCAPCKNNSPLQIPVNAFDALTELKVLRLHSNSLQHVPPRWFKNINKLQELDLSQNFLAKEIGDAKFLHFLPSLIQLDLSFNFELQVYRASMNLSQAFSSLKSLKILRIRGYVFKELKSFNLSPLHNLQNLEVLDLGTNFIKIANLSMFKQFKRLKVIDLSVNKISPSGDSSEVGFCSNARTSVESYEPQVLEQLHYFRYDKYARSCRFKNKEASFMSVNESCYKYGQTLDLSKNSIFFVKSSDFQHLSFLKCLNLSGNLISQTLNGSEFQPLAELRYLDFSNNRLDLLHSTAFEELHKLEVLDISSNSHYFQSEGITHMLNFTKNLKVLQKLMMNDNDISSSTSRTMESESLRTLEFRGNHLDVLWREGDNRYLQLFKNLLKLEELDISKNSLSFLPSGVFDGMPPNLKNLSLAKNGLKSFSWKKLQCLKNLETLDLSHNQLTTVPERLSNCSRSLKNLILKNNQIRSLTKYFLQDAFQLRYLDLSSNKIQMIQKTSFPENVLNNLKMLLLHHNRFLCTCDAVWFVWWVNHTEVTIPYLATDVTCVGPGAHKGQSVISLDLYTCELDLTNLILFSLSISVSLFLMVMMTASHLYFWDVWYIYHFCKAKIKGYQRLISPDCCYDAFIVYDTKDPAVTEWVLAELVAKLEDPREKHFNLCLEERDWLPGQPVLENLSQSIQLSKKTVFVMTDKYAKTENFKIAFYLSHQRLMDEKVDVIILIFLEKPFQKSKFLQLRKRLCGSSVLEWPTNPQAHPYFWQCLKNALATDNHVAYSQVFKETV
From the text: (§3) Parental cell lines (Null1 and Null1K, stably transfected with the SEAP reports but without hTLR receptor expression) were used as negative controls.

hTLR8 = target: T2, hTLR8 (Homo sapiens, UniProt Q9NR97); assay: as above; type: cell-based; conditions: hTLR8 reporter cell line
T2 construct: expressed in transfected cells; host or cells: HEK293
T2 sequence (Q9NR97 27-1041): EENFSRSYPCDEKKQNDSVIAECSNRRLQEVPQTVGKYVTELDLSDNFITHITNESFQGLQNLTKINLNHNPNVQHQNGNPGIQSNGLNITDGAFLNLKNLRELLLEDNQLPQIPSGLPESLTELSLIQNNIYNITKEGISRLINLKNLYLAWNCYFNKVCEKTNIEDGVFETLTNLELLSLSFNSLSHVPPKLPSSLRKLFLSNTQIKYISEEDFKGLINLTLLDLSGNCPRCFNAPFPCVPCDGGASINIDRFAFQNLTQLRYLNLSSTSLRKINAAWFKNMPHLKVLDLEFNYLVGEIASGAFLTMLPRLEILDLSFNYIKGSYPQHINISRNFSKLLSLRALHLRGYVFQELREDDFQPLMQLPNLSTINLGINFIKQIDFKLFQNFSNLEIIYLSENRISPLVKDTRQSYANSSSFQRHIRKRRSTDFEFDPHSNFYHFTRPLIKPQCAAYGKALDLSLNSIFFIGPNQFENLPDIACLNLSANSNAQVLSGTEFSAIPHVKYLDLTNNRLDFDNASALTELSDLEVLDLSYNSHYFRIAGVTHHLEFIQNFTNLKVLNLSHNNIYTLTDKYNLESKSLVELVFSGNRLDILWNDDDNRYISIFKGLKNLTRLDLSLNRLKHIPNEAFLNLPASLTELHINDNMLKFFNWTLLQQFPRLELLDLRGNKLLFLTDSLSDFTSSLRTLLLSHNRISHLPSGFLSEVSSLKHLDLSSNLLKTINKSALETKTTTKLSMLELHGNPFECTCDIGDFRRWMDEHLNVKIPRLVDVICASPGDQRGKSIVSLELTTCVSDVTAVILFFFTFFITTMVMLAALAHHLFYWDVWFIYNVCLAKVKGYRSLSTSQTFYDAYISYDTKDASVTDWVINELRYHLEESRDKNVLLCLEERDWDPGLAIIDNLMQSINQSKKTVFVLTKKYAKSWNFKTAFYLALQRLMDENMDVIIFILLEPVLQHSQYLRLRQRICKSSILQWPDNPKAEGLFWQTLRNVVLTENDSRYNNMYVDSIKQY
From the text: as §3

[3] = Plasma and tumor concentrations following single 10 μg (R848 equivalents) intratumoral administration to CT26 tumor bearing mice; type: in vivo, Balb/c mice; set-up: unit not given here
Description: as §1, §2

[4] = Plasma and tumor concentrations following single 10 μg (R848 equivalents) intratumoral administration to EMT6 tumor bearing mice; type: in vivo, Balb/c mice; set-up: unit not given here
Description: as §1, §2

[5] = Plasma and tumor concentrations following single 10 μg (R848 equivalents) intratumoral administration to CT26 tumor bearing mice; type: in vivo, Balb/c mice; set-up: key: +<10; 10≤++<100; 100≤+++<1,000; 1,000≤++++; BLQ is Below the Limit of Quantitation; conditions: 96.00 hr post-dose
Description: as §1, §2

[6] = Plasma and tumor concentrations following single 10 μg (R848 equivalents) intratumoral administration to EMT6 tumor bearing mice; type: in vivo, Balb/c mice; set-up: key: +<10; 10≤++<100; 100≤+++<1,000; 1,000≤++++; BLQ is Below the Limit of Quantitation
Description: as §1, §2

4-arm-PEG20k-CM-glycine-N-R848 [Compound 6]
4.8 µM: EC50 (hTLR7; Experiment 3)
BLQ: Compound 6 plasma concentration ([1]; 72.00 hr post-dose) | Compound 6 plasma concentration ([1]; 96.00 hr post-dose) | Compound 6 plasma concentration ([1]; 120.00 hr post-dose) | Compound 6 plasma concentration ([1]; 144.00 hr post-dose) | Compound 6 plasma concentration ([2]; 72.00 hr post-dose) | Compound 6 plasma concentration ([2]; 96.00 hr post-dose) | Compound 6 plasma concentration ([2]; 120.00 hr post-dose) | Compound 6 plasma concentration ([2]; 144.00 hr post-dose) | Compound 6 tumor concentration ([2]; 144.00 hr post-dose) | R848 plasma concentration [5] | R848 plasma concentration ([6]; 72.00 hr post-dose) | R848 plasma concentration ([6]; 96.00 hr post-dose) | R848 plasma concentration ([6]; 120.00 hr post-dose) | R848 plasma concentration ([6]; 144.00 hr post-dose)
+ (+<10): R848 plasma concentration ([3]; 0.25 hr post-dose) | R848 plasma concentration ([3]; 2.00 hr post-dose) | R848 plasma concentration ([3]; 6.00 hr post-dose) | R848 plasma concentration ([3]; 24.00 hr post-dose) | R848 plasma concentration ([3]; 72.00 hr post-dose) | R848 plasma concentration ([3]; 120.00 hr post-dose) | R848 plasma concentration ([3]; 144.00 hr post-dose) | R848 plasma concentration ([4]; 0.25 hr post-dose) | R848 plasma concentration ([4]; 2.00 hr post-dose) | R848 plasma concentration ([4]; 6.00 hr post-dose) | R848 plasma concentration ([4]; 24.00 hr post-dose)
4.3 µM: EC50 (hTLR7; Mean)
++ (1,000≤++<10,000): Compound 6 tumor concentration ([1]; 6.00 hr post-dose) | Compound 6 tumor concentration ([1]; 24.00 hr post-dose) | Compound 6 tumor concentration ([2]; 6.00 hr post-dose)
+++ (10,000≤+++<100,000): Compound 6 tumor concentration ([1]; 0.25 hr post-dose) | Compound 6 tumor concentration ([1]; 2.00 hr post-dose) | Compound 6 tumor concentration ([2]; 0.25 hr post-dose) | Compound 6 tumor concentration ([2]; 2.00 hr post-dose)
> 30 µM: EC50 (hTLR8; Experiment 1) | EC50 (hTLR8; Experiment 2) | EC50 (hTLR8; Experiment 3) | EC50 (hTLR8; Mean)
+++ (100≤+++<1,000): Compound 6 plasma concentration ([1]; 0.25 hr post-dose) | Compound 6 plasma concentration ([1]; 2.00 hr post-dose) | Compound 6 plasma concentration ([1]; 6.00 hr post-dose) | Compound 6 plasma concentration ([1]; 24.00 hr post-dose) | Compound 6 plasma concentration ([2]; 2.00 hr post-dose) | Compound 6 plasma concentration ([2]; 6.00 hr post-dose)
+ (+<1,000): R848 tumor concentration ([1]; 0.25 hr post-dose) | R848 tumor concentration ([1]; 2.00 hr post-dose) | R848 tumor concentration ([1]; 6.00 hr post-dose) | R848 tumor concentration ([1]; 24.00 hr post-dose) | R848 tumor concentration ([1]; 72.00 hr post-dose) | Compound 6 tumor concentration ([1]; 72.00 hr post-dose) | R848 tumor concentration ([1]; 96.00 hr post-dose) | Compound 6 tumor concentration ([1]; 96.00 hr post-dose) | R848 tumor concentration ([1]; 120.00 hr post-dose) | Compound 6 tumor concentration ([1]; 120.00 hr post-dose) | R848 tumor concentration ([1]; 144.00 hr post-dose) | Compound 6 tumor concentration ([1]; 144.00 hr post-dose) | R848 tumor concentration ([2]; 0.25 hr post-dose) | R848 tumor concentration ([2]; 2.00 hr post-dose) | R848 tumor concentration ([2]; 6.00 hr post-dose) | R848 tumor concentration ([2]; 24.00 hr post-dose) | Compound 6 tumor concentration ([2]; 24.00 hr post-dose) | R848 tumor concentration ([2]; 72.00 hr post-dose) | Compound 6 tumor concentration ([2]; 72.00 hr post-dose) | R848 tumor concentration ([2]; 96.00 hr post-dose) | Compound 6 tumor concentration ([2]; 96.00 hr post-dose) | R848 tumor concentration ([2]; 120.00 hr post-dose) | Compound 6 tumor concentration ([2]; 120.00 hr post-dose) | R848 tumor concentration ([2]; 144.00 hr post-dose)
3.5 µM: EC50 (hTLR7; Experiment 2)
4.6 µM: EC50 (hTLR7; Experiment 1)
++ (10≤++<100): Compound 6 plasma concentration ([2]; 0.25 hr post-dose) | Compound 6 plasma concentration ([2]; 24.00 hr post-dose)

From patent US11744898B2, “Multi-arm polymer conjugates of TLR agonist compounds and related immunotherapeutic treatment methods” (Nektar Therapeutics, priority 2017, dated 2023)
